One assay deals with plasma kallikrein (Homo sapiens, UniProt P03952). Kind of assay: Neat human plasma assay: contact pathway-activated (FXIIa) plasma, PFR-AMC substrate. The settings on record: read-out: Human Plasma Assay: IC90; citrated human plasma (78% final), 10 nM human FXIIa, 100 μM PFR-AMC, room temperature. As for the experimental part: To analyze inhibition of plasma kallikrein in an ex vivo setting, the potency of compounds was measure in contact pathway-activated plasma assays. In a fluorogenic peptide substrate assay, test compounds dissolved in DMSO were added to sodium citrate collected human or rat plasma in a 96-well microplate. Alternatively, citrated plasma was collected from rats administered the compounds orally or by IV. 10 nM of human FXIIa (Enzyme Research Laboratories) diluted in pKal buffer (20 mM Tris-HCl, pH 7.5, 150 mM NaCl, 1 mM EDTA, 0.1% PEG-8000, and 0.1% Triton X-100) was added to the plasma, followed by the 100 μM of the profluorescent, synthetic plasma kallikrein substrate PFR-AMC (also diluted in pKal buffer). Final plasma concentration in the reaction was 78%. Fluorescence was immediately monitored by excitation/emission wavelengths of 360 nm/480 nm respectively over a period of 5 minutes in a microplate reader. The resulting linear increase in fluorescence emission (reflecting pKal proteolysis of PFR-AMC substrate) was fit to extract a proteolytic rate (fluorescent units over time), and this rate was subsequently plotted against compound inhibitor concentration. Resulting plots were fit to a standard 4-parameter IC50/IC90 equation to determine min/max values, IC50/90, and slope. All experimental steps were performed at room temperature.
For the compounds listed in Table 7, the IC90 values are reported according to the following ranges: A≤400 nM; 400 nM<B≤1,500 nM; 1,500 nM<C≤10,000 nM; 10,000 nM<D≤22,000 nM.

Amino acid sequences for entries named in this document (tags omitted). Residues count along the entry.
UniProt P03952, 391-638 limits assumed: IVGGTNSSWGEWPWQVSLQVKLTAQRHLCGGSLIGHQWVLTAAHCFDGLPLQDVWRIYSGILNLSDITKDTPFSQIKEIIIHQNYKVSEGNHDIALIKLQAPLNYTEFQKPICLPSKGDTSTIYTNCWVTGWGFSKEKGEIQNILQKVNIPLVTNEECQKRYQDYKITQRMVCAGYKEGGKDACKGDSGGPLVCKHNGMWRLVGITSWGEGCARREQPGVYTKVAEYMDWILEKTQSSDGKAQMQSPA
UniProt P03952, 20-390 partner limits assumed: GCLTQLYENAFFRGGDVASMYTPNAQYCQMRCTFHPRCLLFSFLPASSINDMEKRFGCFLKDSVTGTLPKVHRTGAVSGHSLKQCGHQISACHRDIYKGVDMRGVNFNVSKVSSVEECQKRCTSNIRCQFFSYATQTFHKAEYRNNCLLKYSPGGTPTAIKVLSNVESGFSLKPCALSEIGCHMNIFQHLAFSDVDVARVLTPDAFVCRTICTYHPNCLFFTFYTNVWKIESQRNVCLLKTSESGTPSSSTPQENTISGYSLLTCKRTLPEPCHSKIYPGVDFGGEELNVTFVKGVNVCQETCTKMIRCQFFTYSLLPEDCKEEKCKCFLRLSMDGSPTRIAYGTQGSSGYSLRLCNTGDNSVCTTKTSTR

Assay [1] concerns the target human activated kallikrein enzyme (Homo sapiens, UniProt P03952). Kind of assay: Inhibition of activated plasma kallikrein, fluorogenic peptide substrate (PFR-AMC) assay, 500 pM enzyme format. The settings on record: read-out: Primary Dose Response Assay: Average EC50; 500 pM activated kallikrein, 300 uM PFR-AMC, 30 min preincubation, 10 min reaction, room temperature. As for the experimental part:
Compounds were evaluated for inhibition of the human activated kallikrein enzyme in two formats of an assay employing a fluorogenic peptide substrate. In one assay format, the concentrations of reagents were as follows: 20 mM Tris pH 7.5, 1 mM EDTA, 150 mM sodium chloride, 0.1% PEG-400, 0.1% Triton X-100, 500 pM activated kallikrein enzyme, 300 uM Pro-Phe-Arg-7-amido-4-methylcoumarin (PFR-AMC) substrate. Prior to reaction initiation with substrate, enzyme and inhibitors were preincubated for 30 min at room temperature. After initiation with substrate, reactions were incubated for 10 min at room temperature and fluorescence emission at 460 nm from 380 nm excitation measured with a microplate reader. In another assay format, the concentrations of reagents were as follows: 20 mM Tris pH 7.5, 1 mM EDTA, 150 mM sodium chloride, 0.1% PEG-400, 0.1% Triton X-100, 5 pM activated kallikrein enzyme, 300 uM PFR-AMC substrate. Prior to reaction initiation with substrate, enzyme and inhibitors were preincubated for 30 min at room temperature. After initiation with substrate, reactions were incubated for 18 hr at room temperature and fluorescence emission at 460 nm from 380 nm excitation measured with a microplate reader.
Table 6 provides the results of the assay in the format with 500 pM activated kallikrein assay. For the compounds listed in Table 6, the EC50 values are reported according to the following ranges: A≤1.0 nM; 1.0 nM<B≤10 nM; 10 nM<C≤100 nM; 100 nM<D≤6500 nM; 6500 nM<E.

Experimental findings from patent US20240199613A1 (TAKEDA PHARMACEUTICAL COMPANY LIMITED, priority 2021, published 2024) are described below.

For orientation: IC90 means the concentration needed for an effect of 90%. What is called EC50 is the concentration at which the effect is half-maximal. Turning to `COc1cc(C2CC2c2nccc(C)n2)nc2cc(NCc3cn4cc(C5CC5)cc(N5CC(=O)N(C)C5=O)c4n3)ccc12` (single isomer, unassigned) [Example 23], on plasma kallikrein, the IC90 was less than 400 nM. Moreover, the EC50 in assay [1] is less than 1 nM. `COc1cc(C2CC2c2nccc(C)n2)nc2cc(NCc3cn4cc(C5CC5)cc(N5CC(=O)N(C)C5=O)c4n3)ccc12` (single isomer, unassigned) [Example 22]: the EC50 in assay [1] fell in the range of 1 to 10 nM. Turning to `Cc1ccnc(C2CC2c2cc(N3CCOCC3)c3ccc(NCc4cn5cc(C6CC6)cc(N6CC(=O)N(C)C6=O)c5n4)cc3n2)n1` (single isomer, unassigned) [Example 41], on plasma kallikrein, the concentration for an effect of 90% (IC90) is less than 400 nM. In addition, in assay [1], the concentration giving a half-maximal response (EC50) is less than 1 nM. As for `Cc1ccnc(C2CC2c2cc(N3CCOCC3)c3ccc(NCc4cn5cc(C6CC6)cc(N6CC(=O)N(C)C6=O)c5n4)cc3n2)n1` (single isomer, unassigned) [Example 42], the concentration for an effect of 90% (IC90) on plasma kallikrein was less than 400 nM. The EC50 in assay [1] lay within 1 to 10 nM.
